Consider 1 compound from US20220265817A1, “THERAPEUTIC COMPOSITIONS AND METHODS FOR TREATING HEPATITIS B” (priority 2017, published 2022).

The subject of this assay is D type HBV in primary human hepatocytes (HBsAg). Kind of assay: microbe, parasite or virus in culture. The format is cell-based. The settings on record: Hepatitis B virus, Hepatocyte, read-out: AVERAGE % INHIBITION HBsAg, compound 23 2000 nM alone (TAF study). As for the experimental part:
The mouse liver perfusion was applied to isolate PHHs. The isolated hepatocytes were further purified by Percoll. The cells were resuspended with culture media and seeded into the 96-well plates (6×10^4 cell/well) or 48-well plates (1.2×10^5 cell/well). The PHHs were infected with a D type HBV one day post seeding (day 1).
On day 2, the test compounds were diluted and added into the cell culture plates. The culture media containing the compounds were refreshed every other day. The cell culture supernatants were collected on day 8 for the HBV DNA and antigen determinations.
The compounds were tested at 7 concentrations, 3-fold dilution, in triplicate.
Two compounds were tested at 5×5 matrix, in triplicate plates.
HBsAg/HBeAg in the culture supernatants harvested on days 8 were measured by the HBsAg/HBeAg ELISA kit (Autobio) according to the manual. The samples were diluted with PBS to get the signal in the range of the standard curve. The inhibition rates were calculated with the formula below. The combination effect was analyzed by the MacSynergy software.
% Inh. HBsAg=[1-HBsAg quantity of sample/HBV quantity of DMSO control]×100.

As usually defined, the inhibition is the drop in the measured response relative to a control, in per cent. In the case of `CNC(=O)N[C@H]1CCOc2c(C(=O)Nc3ccc(F)c(F)c3)ccc(F)c21` [Compound 23], the inhibition at 2 µM came out at 22.8%.
